What was measured:
[1] = tested on: primary mouse hepatocytes; assay: Cell viability assay (MTT) with primary mouse hepatocytes
Description: Next it was analyzed if the modified doxorubicin is still cytotoxic to cells. In this experiment primary mouse hepatocytes isolated from C57BL/6 mice as described in Galle et al., (1994) (37) were incubated and reseeded in 96 well flat bottom plates to form a confluent cell layer. […] The cells were then incubated for 12 h (FIG. 6A) or 24 h (FIG. 6B), respectively. After incubation an MTT assay (Cell proliferation Kit, Roche Mannheim Germany) was performed as indicated by the manufacturer's instructions to determine remaining cell viability. The results are shown in FIGS. 6A and 6B (Cell Viability Assay).

HepG2 cells = assay: Cell viability assay (MTT) with HepG2 cells; details: 12 h of incubation, cells not expressing the peptide specific receptor (FIG. 7)

Myristoyl-[K-Doxorubicin]-NLSTSNPLGFFPDHQLDPy (SEQ ID NO:21)-amide [HBVpreS/myr-[K-Doxorubicin]3-20y]
cytotoxic effects ([1]; after 12 h incubation (FIG. 6A)): significant cytotoxic effects
cytotoxic effects ([1]; after 24 h incubation (FIG. 6B)): significant cytotoxic effects
cytotoxic activity (HepG2 cells): no cytotoxic activity

From patent publication US10513539B2, “Hydrophobic modified peptides and their use for liver specific targeting” (Ruprecht-Karls-Universitat Heidelberg, priority 2011, dated 2019)
